pKi: −log10 of the molar value.
Target: Cholinesterase (Homo sapiens, UniProt P06276)

By UniProt entry, the sequences of proteins in these tests, tags left out.
UniProt P06276, whole entry: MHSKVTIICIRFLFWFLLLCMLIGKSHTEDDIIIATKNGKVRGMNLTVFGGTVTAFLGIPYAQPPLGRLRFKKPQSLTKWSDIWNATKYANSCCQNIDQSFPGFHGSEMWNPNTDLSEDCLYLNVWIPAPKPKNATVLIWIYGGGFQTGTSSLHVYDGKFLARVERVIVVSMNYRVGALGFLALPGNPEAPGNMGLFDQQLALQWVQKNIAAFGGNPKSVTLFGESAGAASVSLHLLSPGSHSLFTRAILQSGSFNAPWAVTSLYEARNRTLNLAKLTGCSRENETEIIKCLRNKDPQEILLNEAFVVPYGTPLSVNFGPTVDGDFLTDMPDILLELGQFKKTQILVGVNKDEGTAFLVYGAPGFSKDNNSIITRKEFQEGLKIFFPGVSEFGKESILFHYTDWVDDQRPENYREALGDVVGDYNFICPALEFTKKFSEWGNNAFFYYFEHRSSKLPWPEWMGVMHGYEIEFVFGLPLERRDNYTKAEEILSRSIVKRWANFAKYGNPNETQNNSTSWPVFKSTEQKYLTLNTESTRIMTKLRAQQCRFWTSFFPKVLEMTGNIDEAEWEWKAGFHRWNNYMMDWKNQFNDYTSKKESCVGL

`O=C1C(=O)N(Cc2ccc(Cc3ccc(CN4C(=O)C(=O)c5ccccc54)cc3)cc2)c2ccccc21` gave a pKi of less than 4.00.

Reference: ChEMBL document CHEMBL1144473, “Selective inhibition of carboxylesterases by isatins, indole-2,3-diones” (J Med Chem, 2007)
